Among the data in ChEMBL document CHEMBL1144408, “Novel atypical antipsychotic agents: rational design, an efficient palladium-catalyzed route, and pharmacological studies” (J Med Chem, 2005) are Ki values, retold here.

pKi: −log10 of the molar value.

For assay [1], the target named is 5-hydroxytryptamine receptor 2A (Homo sapiens, UniProt P28223). Put plainly: Inhibition of [3H]ketanserin binding to recombinant human 5-hydroxytryptamine 2A receptor.
Assay [2] concerns the target 5-hydroxytryptamine receptor 2A (Rattus norvegicus, UniProt P14842).

Regarding `CN1CCN(C2=Cc3ccccc3Cn3cccc32)CC1`, in assay [1], the negative-log Ki (pKi) is 8.27.
Consider `CN1CCN(C2=Cn3cccc3Sc3sccc32)CC1`, for which the pKi in assay [2] is 8.67.
`Cc1ccc2n1Cc1ccccc1C=C2N1CCN(C)CC1` had a pKi in assay [2] of 8.30.
On to `CN1CCN(C2=Cc3cc(Cl)ccc3Cn3cccc32)CC1`, for which the pKi in assay [2] was 8.87.
